Series [1] in a line: Bradykinin nociception test. Conditions: for Bradykinin Nociception Test ED50 / Inhibition (%) of Occurrence of Pain: rats; for ED50: Rattus norvegicus, read-out: Bradykinin Nociception Test ED50; for Inhibition (%) of Occurrence of Pain: 2.5 mg/kg s.c.
Series [2] can be described thus: in vivo. Conditions: rat.
Series [3] can be described thus: Antagonism by levallorphan in electric stimuli test. Conditions: electric stimuli test in mice; levallorphan (narcotic antagonist).
A short description of series [4]: Electric stimuli test. As to conditions: for Electric Stimuli Test ED50: mice; for ED50: Mus musculus, read-out: Electric Stimuli Test ED50.
The nature of series [5]: Tooth pulp nociception test.
The nature of series [6]: AgNO3 arthritis test. Conditions: for ED50: Rattus norvegicus, sc, read-out: AgNO3 Arthritis Test ED50; for Inhibition (%) of Occurrence of Pain: 5 mg/kg s.c.
A short description of series [7]: Phenylquinone writhing test. Conditions: for Phenylquinone Writhing Test ED50 / Inhibition (%) of Occurrence of Pain: mice; for ED50: Mus musculus, read-out: Phenylquinone Writhing Test ED50; for Inhibition (%) of Occurrence of Pain: 0.5 mg/kg s.c. For orientation: An intraperitoneal irritant provokes the stretching counted in writhing tests.
A short description of series [8]: Hot plate test. As to conditions: for ED50: Rattus norvegicus, sc, read-out: Hot Plate Test ED50. In general terms: Hot-plate and tail-flick tests time the reaction to a heat stimulus.
Series [9] concerns ventro-medial hypothalamus. Conditions: compared with Test compound B; cited from earlier work.
The nature of series [10]: Mouse jumping test. Conditions: administration at a lethal dose.
The test system of series [11] is ventro-medial hypothalamus. The experiment in a line: Effect on the aggressive-defense reaction produced by electrical stimulation at the ventro-medial hypothalamus of cats. The class given is in vivo. Conditions: for Threshold of current, Ear-flattening / Threshold of current, Growling / Threshold of current, Retreat with provocation / Threshold of current, Pupil dilatation: standard current = 100. How it is done: The latter used the double-walled cannula method which permitted electrical and chemical stimulation at the same locus in brain. H. Nakao et al. in "Integrative Control Functions of the Brain", vol. […] Similar studies have been done using serotonin by L. H. Allikmets in "Pavlov Journal of High Nervous Activity", 22, 597-602 (1972) and using chlorpromazine, haloperidol, pentobarbital and diazepam by H. Maeda in "Folia Psychiatrica et Neurologica Japonica", 30, 539-546 (1976).
Alternatively 30 mg/kg of Test compound B was injected subcutaneously.

Series [12] deals with central nervous system. The experiment in a line: Activity on central nervous system. As to conditions: in vivo.
The subject of series [13] is evoked potentials in central nervous system. The series is described as follows: Effect on the various evoked potentials in central nervous system. The class given is in vivo, Male Wistar rats. Set-up: key to Amplitude of Evoked Responses, VP-COR / Amplitude of Evoked Responses, HIP-AMY / Amplitude of Evoked Responses, HIP-SEP: -: No change; --: No change; (+): Levallorphan antagonism; (-): Levallorphan antagonism. How it is done: Male Wistar rats, weighing 300-350 g, were used under ethyl ether anesthesia. The trachea and femoral vein were cannulated for artificial respiration and drug injection, respectively. Immobilization of the rat was maintained by gallamine thioethiodide (10 mg/kg) given intravenously every one hours. All wound edges were infiltration with carbocaine hydrochloride. The experiments began after at least 2 hours had elapsed from discontinuance of ether anesthesia. The COR (somatosensory cortex) evoked potentials by VP (neucleus ventralis posterior thalamus) stimulation (VP - COR evoked potential) were recorded from somatosensory cortex, through a silver electrode applied directly to the cortex. In order to record VP and MRF (midbrain reticular formation) evoked potentials by sciatic nerve stimulation or AMY (amygdala) and SEP (septum) evoked potentials by HIP (hippocampus) stimulation, bipolar stainless steel electrodes were stereotaxically placed into the VP, MRF, AMY, SEP and HIP. The stimuli were delivered to various sites every 2 seconds from a stimulation and consisted of 0.1 msec rectangular pulses (twice threshold intensity). The evoked responses were visualized on an oscilloscope. All records were made up of 20 superimposed tracings.

A short description of series [14]: Tolerance test. The class given is in vivo. Conditions: continuous administration.
The conditions of series [15]: rats; withdrawal.
Setting [16] is: calculated from inhibition (%) in a low dose.

Structures can show the parent of a compound that is named as a salt.

The term LD50 denotes the dose expected to kill half of the subjects tested. In the case of `COc1cccc(C2(O)CCCCC2CN(C)C)c1` (stereo not drawn) [Tramadol, reference compound], the entries for the “Bradykinin Nociception Test ED50” value in [1] (p.o.) and in series [1] (s.c.) were 50 mg/kg and 70 mg/kg, respectively. Besides, the results for the LD50 in series [2] (ip), in [2] (po) and in series [2] (sc) were 150 mg/kg, 228 mg/kg and 300 mg/kg, respectively. Moreover, in series [3], the “Influence of levallorphan on analgesic activity” value is “reduced”. The “Electric Stimuli Test ED50” value in series [4] (p.o.) stood at 23 mg/kg; in series [4] (s.c.) it was 12 mg/kg. For the same compound, in series [5] (rabbit, in vivo, iv), the “Tooth Pulp Nociception Test IT100” value is recorded as 5 mg/kg. Also, in series [6] (rats, s.c.), the “AgNO3 Arthritis Test ED50” value worked out at 17 mg/kg. The “Phenylquinone Writhing Test ED50” value in series [7] (p.o.) is 11 mg/kg; in [7] (s.c.) it was 1.5 mg/kg. The “Hot Plate Test ED50” value in series [8] (rats, s.c.) was 50 mg/kg.

As to `CN(C)CCCN1c2ccccc2Sc2ccc(Cl)cc21` [chlorpromazine], the “inhibition of threatening and rage reactions” value in [9] is given as “less active”.

Usually ED50 stands for the dose that gives a 50% effect, or the effect in half of the subjects. Turning to `O=C1CCN(C2CCN(CC=Cc3ccccc3)CC2)C(=O)N1` [Test compound B, 1-(1-cinnamyl-4-piperidyl)hydrouracil hydrochloride], the ED50 amounted to 100 mg/kg in series [1] (po); 10 mg/kg in [1] (sc); 200 mg/kg in series [4] (po); 40 mg/kg in series [4] (sc); 25 mg/kg in [6]; 18 mg/kg in series [7] (po). Also, the median effective dose (ED50) in series [7] (sc) is 7.8 mg/kg; in series [8], 90 mg/kg. Also, the LD50 in [2] (ip) is 150 mg/kg; in [2] (po), 1200 mg/kg; in series [2] (sc) it was 500 mg/kg. Also, in [10], the jumping symptom entry was “did not cause any jumping symptom”. In addition, the “Threshold of current, Ear-flattening” value in series [11] (30 mg/kg s.c., 0 min) came to 100; in series [11] (30 mg/kg s.c., 70 min), 120; in series [11] (30 mg/kg s.c., 110 min), 105; in [11] (10^-6 g in brain, 0 min), 100; in series [11] (10^-6 g in brain, 5 min), 200; in [11] (10^-6 g in brain, 20 min) it was 200. Besides, the “Threshold of current, Growling” value in [11] (30 mg/kg s.c., 0 min) is recorded as 100; in series [11] (30 mg/kg s.c., 70 min), 177; in series [11] (30 mg/kg s.c., 110 min), 184; in series [11] (10^-6 g in brain, 0 min), 100; in series [11] (10^-6 g in brain, 5 min) it was 200. Also, the “Threshold of current, Retreat with provocation” value is reported as 100 in series [11] (30 mg/kg s.c., 0 min); 142 in series [11] (30 mg/kg s.c., 70 min); 127 in series [11] (30 mg/kg s.c., 110 min); 100 in series [11] (10^-6 g in brain, 0 min); 180 in series [11] (10^-6 g in brain, 5 min). For the same compound, the “duration for which the threshold of responses was raised” value in [11] (30 mg/kg subcutaneously) is recorded as “over 2 hours”. Moreover, in series [11] (30 mg/kg subcutaneously), the “rage behaviour with provocation by the experimenter” value is given as “did not show rage behaviour”. The “duration for which the threshold of current was raised” value in series [11] (10^-6 g in 0.5 μl through double-walled cannula) stood at 60 min. Moreover, the “Threshold of current, Pupil dilatation” value in [11] (10^-6 g in brain, 0 min) is 100; in [11] (10^-6 g in brain, 5 min), 200. Further, in series [11] (during this experiment), the “breathing of the cat” value is recorded as “normal”. Further, the “threatening, rage and retreat reactions” value in series [11] (electrical stimulation of ventro-medial hypothalamus) is given as “clearly suppressed”. The muscle relaxant activity entry in series [12] is given as “did not show practically such activities”. For the same compound, in series [12], the reserpine potentiating activity result was “did not show practically such activities”. Moreover, in [12], the “suppression of spontaneous locomotor activity” value was “did not show practically such activities”.

Take `CCCC(C)C1(CC)C(=O)NC(=O)NC1=O` (stereo not drawn) [pentobarbital]: the “inhibition of threatening and rage reactions” value in [9] is “less active”.

Consider `CCOC(=O)C1(c2ccccc2)CCN(C)CC1` [Pethidine, reference compound], for which, in [13] (5 mg/kg i.v.), the “Amplitude of Evoked Responses, HIP-SEP” value is on record as “--” and the “Amplitude of Evoked Responses, VP-COR” value is “--”. Moreover, the “Amplitude of Evoked Responses, HIP-SEP” value in series [13] (10 mg/kg i.v.) is “--”.

Regarding `CN1CC[C@]23c4c5ccc(O)c4O[C@H]2[C@@H](O)C=C[C@H]3[C@H]1C5` [Morphine], the ED50 in series [1] (po) was 50 mg/kg; in [1] (sc), 6 mg/kg; in [4] (sc), 3 mg/kg; in [6], 0.8 mg/kg; in [7] (po) it was 2.1 mg/kg; in series [7] (sc), 0.4 mg/kg. For the same compound, the ED50 in series [8] was found to be 4 mg/kg. The figures for the “Inhibition (%) of Occurrence of Pain” value in [1], in series [6] (rats) and in [7] were 17%, 100% and 78%, respectively. Also, the “Electric Stimuli Test ED50” value in series [4] (p.o.) worked out at 17 mg/kg.

For the compound `O=C1CCN(C2CCN(CCc3ccccc3)CC2)C(=O)N1` [Test compound D, 1-(1-phenethyl-4-piperidyl)hydrouracil hydrochloride], the ED50 in series [1] (sc) amounted to 25 mg/kg; in series [4] (po), 220 mg/kg; in series [4] (sc) it was 100 mg/kg; in [6], 90 mg/kg; in series [7] (po) it was 4 mg/kg; in series [7] (sc), 2.5 mg/kg. The ED50 in series [8] was determined as 200 mg/kg. Further, the LD50 in [2] (ip) is 180 mg/kg; in [2] (po) it was 500 mg/kg; in [2] (sc), 450 mg/kg.

On to `CN1C(=O)CN=C(c2ccccc2)c2cc(Cl)ccc21` [diazepam], for which the “inhibition of threatening and rage reactions” value in series [9] is “less active”.

`COc1ccc2c3c1O[C@H]1[C@@H](O)C=C[C@H]4[C@@H](C2)N(C)CC[C@@]341` [Codeine, reference compound]: in [14], the “tolerance (decrease of effects)” value is “caused a clear tolerance”. Besides, the body weight reduction entry in [15] is reported as “remarkably reduced”.

With `CC(C)=CCN1CCC2(C)c3cc(O)ccc3CC1C2C` (stereo not drawn) [Pentazocine], the ED50 in [1] (po) was determined as 100 mg/kg; in series [1] (sc), 8 mg/kg; in series [4] (po), 178 mg/kg; in series [4] (sc), 23 mg/kg; in [6], 10 mg/kg; in [7] (po) it was 18 mg/kg. In addition, the ED50 in [7] (sc) worked out at 1.3 mg/kg; in series [8], 30 mg/kg. Further, the “Relative potency (Test compound A = 1), Bradykinin Nociception Test” value in [1] (calculated from ED50) is given as 0.5; in series [1] (setting [16]) it was 0.34. Also, the “Inhibition (%) of Occurrence of Pain” value is on record as 13% in [1], 33% in series [6] (rats) and 15% in series [7]. Besides, the LD50 came to 1100 mg/kg in series [2] (po) and 270 mg/kg in [2] (sc). For the same compound, the “Relative potency (Test compound A = 1), Tooth Pulp Nociception Test” value was 0.82 in series [5] (calculated from ED50) and 0.59 in series [5] (setting [16]). Also, in series [5] (rabbits, 2.5 mg/kg i.v.), the “increasing rate in threshold” value is reported as 44%. In addition, the “Relative potency (Test compound A = 1), AgNO3 Arthritis Test” value is reported as 0.7 in series [6] (calculated from ED50) and 0.78 in series [6] (setting [16]). Also, the “Relative potency (Test compound A = 1), Phenylquinone Writhing Test” value is listed as 0.77 in series [7] (calculated from ED50) and 0.31 in [7] (setting [16]).

Consider `Cc1c(N(C)C)c(=O)n(-c2ccccc2)n1C` [Aminopyrine, reference compound], for which the ED50 turned out to be 30 mg/kg in series [1] (sc); 315 mg/kg in [4] (po); 100 mg/kg in series [4] (sc); 170 mg/kg in [6]; 92 mg/kg in series [7] (po); 16 mg/kg in [7] (sc). Also, the “Amplitude of Evoked Responses, HIP-AMY” value in [13] (10 mg/kg i.v.), in series [13] (25 mg/kg i.v.) and in [13] (50 mg/kg i.v.) was “--” in each case. Further, the “Amplitude of Evoked Responses, HIP-SEP” value in series [13] (10 mg/kg i.v.), in [13] (25 mg/kg i.v.) and in series [13] (50 mg/kg i.v.) was “--” throughout. The “Amplitude of Evoked Responses, VP-COR” value in [13] (10 mg/kg i.v.) is recorded as “--”. In addition, the figures for the LD50 in [2] (ip) and in [2] (po) were 248 mg/kg and 1050 mg/kg, respectively.

Values taken from US4514403A, “Hydrouracil compounds” (Yoshitomi Pharmaceutical Industries Ltd., priority 1980, dated 1985).
